Some results are limits rather than exact numbers.

This experiment in a line: Selectivity index, ratio of IC50 for binding affinity to HSP90beta (unknown origin) to IC50 for binding affinity to HSP90alpha (unknown origin).
Regarding `Cc1ccc(Sc2cc(C(=O)N3Cc4ccc(OCCCN(C)C)cc4C3)ccc2O)cc1C`, the Ratio IC50 is over 196.
As to `Cc1ccc(Sc2cc(C(=O)N3Cc4ccc(OCC[N+](C)(C)C)cc4C3)ccc2O)cc1C.O=C([O-])C(F)(F)F`, the Ratio IC50 is over 153.
Consider `Cc1ccc(Sc2cc(C(=O)N3Cc4ccc(OCCN(C)C)cc4C3)ccc2O)cc1C`, for which the Ratio IC50 stood at 113.
On to `Cc1ccc(Sc2cc(C(=O)N3Cc4ccc(OCCC[N+](C)(C)C)cc4C3)ccc2O)cc1C.O=C([O-])C(F)(F)F`, for which the Ratio IC50 was over 294.

For the origin of these results see ChEMBL document CHEMBL5365518, “Synthesis and Validation of the First Cell-Impermeable Hsp90α-Selective Inhibitors” (ACS Med Chem Lett, 2023).
